The results in this text go back to BindingDB's records for 15780631 (Universit&#224, 2005).

By UniProt entry, the sequences of proteins in these tests, tags left out. Residues count along the entry.
UniProt P00915, 2-261 limits assumed: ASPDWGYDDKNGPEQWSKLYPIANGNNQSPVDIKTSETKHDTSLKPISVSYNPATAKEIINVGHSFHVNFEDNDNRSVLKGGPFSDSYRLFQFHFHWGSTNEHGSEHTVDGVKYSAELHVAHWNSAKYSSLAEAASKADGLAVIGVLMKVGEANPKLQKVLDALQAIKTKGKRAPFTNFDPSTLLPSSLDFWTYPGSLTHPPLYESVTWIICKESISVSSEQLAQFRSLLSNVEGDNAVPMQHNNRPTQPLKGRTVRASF
UniProt P22748, 19-284 limits assumed: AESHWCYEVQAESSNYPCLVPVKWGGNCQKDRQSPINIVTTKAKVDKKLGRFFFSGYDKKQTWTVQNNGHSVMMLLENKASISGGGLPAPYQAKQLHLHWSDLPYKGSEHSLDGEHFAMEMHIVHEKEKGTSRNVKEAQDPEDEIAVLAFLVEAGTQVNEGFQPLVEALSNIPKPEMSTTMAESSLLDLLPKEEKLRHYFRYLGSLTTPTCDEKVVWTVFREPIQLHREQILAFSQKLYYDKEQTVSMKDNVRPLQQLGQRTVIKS
UniProt P35218, 39-305 limits assumed: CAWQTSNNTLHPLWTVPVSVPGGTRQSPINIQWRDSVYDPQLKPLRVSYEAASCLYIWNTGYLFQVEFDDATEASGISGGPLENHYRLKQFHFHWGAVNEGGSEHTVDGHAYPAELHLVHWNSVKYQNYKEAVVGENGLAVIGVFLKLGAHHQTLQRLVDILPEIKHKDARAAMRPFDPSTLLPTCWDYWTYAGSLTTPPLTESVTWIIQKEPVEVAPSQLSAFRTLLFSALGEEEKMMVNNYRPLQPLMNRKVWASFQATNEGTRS

Only a part of the results on these compounds is given; other tests are left out.

The target of one test is Carbonic anhydrase 2 (Homo sapiens, UniProt P00918). Put plainly: Inhibitory constant against human isozymes carbonic anhydrase II for the CO2 hydration reaction at 20 C.
Another test has as its target Carbonic anhydrase 1 (Homo sapiens, UniProt P00915).
Another test concerns the target Carbonic anhydrase 4 (Homo sapiens, UniProt P22748). The test is described as follows: Inhibitory constant against human isozymes carbonic anhydrase IV for the CO2 hydration reaction at 20 degree C.
The target of a further test is Carbonic anhydrase 9 (Homo sapiens, UniProt Q16790). The test is described as follows: Inhibitory constant against human isozymes carbonic anhydrase IX for the CO2 hydration reaction at 20 C.
The target of test [1] is Carbonic anhydrase 5A, mitochondrial (Homo sapiens, UniProt P35218). Put plainly: Inhibitory constant against human isozymes carbonic anhydrase V for the CO2 hydration reaction at 20 C.

For `N#[C][Pd-2]([C]#N)([C]#N)[C]#N`, the Ki (in general, the equilibrium dissociation constant of an inhibitor or competing ligand from its target) amounted to 1220 µM on Carbonic anhydrase 2; 1270 µM at Carbonic anhydrase 1; 1690 µM on Carbonic anhydrase 4; 890 µM at Carbonic anhydrase 9; 2000 µM in test [1].
